{"source": "patent US12133915B2", "about": "“Method of treating epilepsy” (ALEXZA PHARMACEUTICALS, INC., priority 2016, dated 2024)", "origin": "cited, not measured here", "conditions": "in vivo; cited from earlier work", "data": [{"smiles": "O=C1CN=C(c2ccccc2)c2cc(Cl)ccc2N1", "note": "[Desmethyl-DZ]", "values": [{"measurement": "half-life", "value": 71, "unit": "h"}]}]}
